Columns and labels:
MR = target: T1, MR (Homo sapiens, UniProt P08235); assay: IC50 (µM)
T1 construct: receptor expression vector (pRS vector) encoding full-length GR and MR respectively (ATCC); host or cells: Cos-7
Text: Table printed on a drawing sheet, FIG. 3D
Head of the field: IC50 (µM)
The patent's description of the figure: FIG. 3.
First copying reader's note: The head of the sequence column numbers the residue positions relative to the first leucine of the LXXLL motif; the last two rows are protein fragments given as residue ranges.

MR LBD = target: T2, MR LBD (Homo sapiens, UniProt P08235, C808S); assay: Peptide profiling: unlabeled peptides compete off SRC2-3 binding to MR (FIG. 1C); conditions: unlabeled peptide 500 nM; 20 nM corticosterone or aldosterone
T2 construct: made in house; host or cells: E. coli BL21DE3 (pET24a)
T2 sequence (P08235 727-984 C808S): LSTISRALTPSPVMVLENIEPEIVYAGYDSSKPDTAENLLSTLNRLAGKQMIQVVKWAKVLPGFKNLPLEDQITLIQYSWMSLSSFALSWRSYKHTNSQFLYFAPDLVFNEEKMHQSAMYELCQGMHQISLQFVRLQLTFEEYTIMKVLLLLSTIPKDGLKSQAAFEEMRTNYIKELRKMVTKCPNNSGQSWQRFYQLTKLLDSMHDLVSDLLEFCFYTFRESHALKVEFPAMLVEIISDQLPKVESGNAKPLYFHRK
Procedure: The cofactors that contain a pair of LXXLL motifs with strong binding affinity to MR are boxed. All peptides have identical length of 15 residues except for SRC1-4 motif, which terminates at position +7 relative to the first leucines (L+1) in the LXXLL motif, and for the AR peptides and the corepressor motifs, which are longer than the coactivator motifs. Sequences of peptides are listed in experimental procedures.
The binding of various peptide motifs to MR was determined by AlphaScreen assays using a hexahistidine detection kit from Perkin-Elmer. MR proteins were prepared as 6×His-GST fusion proteins for the assays.
The unlabeled peptides that were used in FIG. 1C are listed below in Table 2:
MR is the least studied member among the classical steroid hormone receptors and its physiological coactivators have not been clearly documented. To gain insights into which coactivator is physiologically relevant to MR, the inventors performed peptide profiling experiments using a panel of 38 unlabeled peptides to compete off the binding of the third LXXLL motif of SRC2 (also known as TIF2/GRIP1) to MR. […] The strong binding of the SRC1-4 motif and the PGC1 motifs is consistent with previous studies of the binding of LXXLL motifs to oxosteroid receptors (Hultman et al., 2005; Wu et al., 2004).

IC50 (MR) | inhibition of SRC2-3 binding to MR (MR LBD) | Compound
1400 nM | – | CC[C@H](C)[C@H](NC(=O)[C@H](CCCCN)NC(=O)[C@H](Cc1cnc[nH]1)NC(=O)[C@H](CCCNC(=N)N)NC(=O)[C@H](CCC(=O)O)NC(=O)[C@@H](N)[C@@H](C)O)C(=O)N[C@@H](CC(C)C)C(=O)N[C@@H](Cc1cnc[nH]1)C(=O)N[C@@H](CCCNC(=N)N)C(=O)N[C@@H](CC(C)C)C(=O)N[C@@H](CC(C)C)C(=O)N[C@@H](CCC(N)=O)C(=O)N[C@@H](CCC(=O)O)C(=O)N[C@@H](CO)C(=O)N[C@@H](CO)C(=O)O [SRC1-2]
1600 nM | – | CC(C)C[C@H](NC(=O)[C@H](CC(C)C)NC(=O)[C@H](Cc1ccc(O)cc1)NC(=O)[C@H](CCCNC(=N)N)NC(=O)[C@H](CC(C)C)NC(=O)[C@H](CC(C)C)NC(=O)[C@H](CCC(N)=O)NC(=O)[C@H](Cc1cnc[nH]1)NC(=O)[C@H](CC(=O)O)NC(=O)[C@H](CCCCN)NC(=O)[C@@H](N)CO)C(=O)N[C@@H](CC(=O)O)C(=O)N[C@@H](CCCCN)C(=O)N[C@@H](CC(=O)O)C(=O)N[C@@H](CCC(=O)O)C(=O)O [SRC1-3]
900 nM | most potent competitors | CC(C)C[C@H](NC(=O)[C@H](CC(C)C)NC(=O)[C@H](CC(C)C)NC(=O)[C@H](CCCCN)NC(=O)[C@H](CCCCN)NC(=O)[C@H](CC(C)C)NC(=O)[C@H](CC(C)C)NC(=O)[C@H](CO)NC(=O)[C@@H]1CCCN1C(=O)[C@H](CCC(=O)O)NC(=O)[C@H](CCC(=O)O)NC(=O)[C@H](C)N)C(=O)N[C@@H](C)C(=O)N1CCC[C@H]1C(=O)N[C@@H](C)C(=O)O [PGC1α-1]
2200 nM | – | CC[C@H](C)[C@H](NC(=O)[C@H](CCCCN)NC(=O)[C@H](Cc1cnc[nH]1)NC(=O)[C@H](CCCCN)NC(=O)[C@H](CCC(=O)O)NC(=O)[C@@H](N)CCCCN)C(=O)N[C@@H](CC(C)C)C(=O)N[C@@H](Cc1cnc[nH]1)C(=O)N[C@@H](CCCNC(=N)N)C(=O)N[C@@H](CC(C)C)C(=O)N[C@@H](CC(C)C)C(=O)N[C@@H](CCC(N)=O)C(=O)N[C@@H](CC(=O)O)C(=O)N[C@@H](CO)C(=O)N[C@@H](CO)C(=O)O [SRC2-2]

Source: patent publication US20070111265A1, “Ligands for mineralocorticoid receptor (MR) and methods for screening for or designing MR ligands” (Van Andel Research Institute, priority 2005, published 2007)
